According to ChEMBL document CHEMBL4130539, “Novel ureidopropanamide based N-formyl peptide receptor 2 (FPR2) agonists with potential application for central nervous system disorders characterized by neuroinflammation” (Eur J Med Chem, 2017):
Activity calls are given as the source filed them. The calls are words filed in the database; no cut-off is given here.

What was measured:
[1] = target: T1, N-formyl peptide receptor 2 (Homo sapiens) (UniProt P25090); assay: Agonist activity at human FPR2 expressed in human HL60 cells assessed as induction of calcium mobilization measured every 5 secs for 240 secs by Fluo-4-AM dye based fluorometric method relative to WKYMVM; type: functional, cell-based
T1 sequence (whole entry): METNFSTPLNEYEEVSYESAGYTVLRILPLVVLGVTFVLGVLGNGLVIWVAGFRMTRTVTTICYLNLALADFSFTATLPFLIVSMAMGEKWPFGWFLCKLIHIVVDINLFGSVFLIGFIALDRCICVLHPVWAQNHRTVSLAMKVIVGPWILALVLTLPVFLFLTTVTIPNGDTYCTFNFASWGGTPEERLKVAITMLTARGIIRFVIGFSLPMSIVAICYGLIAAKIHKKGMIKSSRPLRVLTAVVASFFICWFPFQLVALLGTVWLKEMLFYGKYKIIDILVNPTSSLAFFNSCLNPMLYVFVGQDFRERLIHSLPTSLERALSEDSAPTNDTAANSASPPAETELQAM

[2] = target: T1, N-formyl peptide receptor 2 (Homo sapiens); assay: Agonist activity at FPR2 in human neutrophils assessed as induction of calcium mobilization measured every 5 secs for 240 secs by Fluo-4-AM dye based fluorometric method relative to fMLF
[3] = target: T2, fMet-Leu-Phe receptor (Homo sapiens) (UniProt P21462); assay: Agonist activity at human FPR1 expressed in human HL60 cells assessed as induction of calcium mobilization measured every 5 secs for 240 secs by Fluo-4-AM dye based fluorometric method relative to fMLF; type: functional, cell-based
T2 sequence (whole entry): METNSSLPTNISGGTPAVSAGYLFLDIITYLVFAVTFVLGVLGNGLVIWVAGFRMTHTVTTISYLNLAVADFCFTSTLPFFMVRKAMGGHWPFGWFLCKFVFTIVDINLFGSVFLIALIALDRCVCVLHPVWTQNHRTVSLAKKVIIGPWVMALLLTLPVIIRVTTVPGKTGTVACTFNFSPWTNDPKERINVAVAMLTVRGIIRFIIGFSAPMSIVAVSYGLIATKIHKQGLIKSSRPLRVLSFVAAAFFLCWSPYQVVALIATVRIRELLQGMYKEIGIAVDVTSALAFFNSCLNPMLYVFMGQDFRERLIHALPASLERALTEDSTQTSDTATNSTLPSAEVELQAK

SMILES | Efficacy [1] | Efficacy [2] | Efficacy [3]
O=C(Nc1ccccc1)N[C@@H](Cc1c[nH]c2ccccc12)C(=O)NCC1(c2ccccc2)CC1 | 35% | 25% | 55%
O=C(Nc1ccc(F)cc1)N[C@H](Cc1c[nH]c2ccccc12)C(=O)NCC1(c2ccccc2)CC1 | inactive | inactive | inactive
COc1ccc(NC(=O)N[C@H](Cc2ccc(C#N)cc2)C(=O)NCC2(c3ccc(C)c(F)c3)CC2)cc1 | inactive | inactive | inactive
Cc1ccc(C2(CNC(=O)[C@H](Cc3ccc(C#N)cc3)NC(=O)Nc3ccc(F)cc3)CC2)cc1F | 65% | 55% | 50%
Cc1ccc(C2(CNC(=O)[C@@H](Cc3ccc(C#N)cc3)NC(=O)Nc3ccc(F)cc3)CC2)cc1F | inactive | inactive | inactive
COc1ccc(NC(=O)N[C@H](Cc2c[nH]c3ccccc23)C(=O)NCC2(c3ccccc3)CC2)cc1 | 55% | inactive | inactive
O=C(Nc1ccc(F)cc1)N[C@@H](Cc1c[nH]c2ccccc12)C(=O)NCC1(c2ccccc2)CC1 | 70% | inactive | 60%
COc1ccc(NC(=O)N[C@@H](Cc2c[nH]c3ccccc23)C(=O)NCC2(c3ccccc3)CC2)cc1 | 125% | 145% | 105%
O=C(Nc1ccccc1)N[C@H](Cc1c[nH]c2ccccc12)C(=O)NCC1(c2ccccc2)CC1 | inactive | inactive | inactive

Second part, the compound after the results:

Efficacy [1] | Efficacy [2] | Efficacy [3] | SMILES
inactive | inactive | inactive | COc1ccc(NC(=O)N[C@@H](Cc2ccc(C#N)cc2)C(=O)NCC2(c3ccc(OC(F)(F)F)cc3)CC2)cc1
35% | 70% | 55% | COc1ccc(NC(=O)N[C@@H](Cc2ccc(C#N)cc2)C(=O)NCC2(c3ccc(C)c(F)c3)CC2)cc1
inactive | inactive | inactive | N#Cc1ccc(C[C@@H](NC(=O)Nc2ccc(F)cc2)C(=O)NCC2(c3ccc(OC(F)(F)F)cc3)CC2)cc1
inactive | inactive | inactive | COc1ccc(NC(=O)N[C@H](Cc2ccc(C#N)cc2)C(=O)NCC2(c3ccc(OC(F)(F)F)cc3)CC2)cc1
inactive | inactive | inactive | N#Cc1ccc(C[C@H](NC(=O)Nc2ccc(F)cc2)C(=O)NCC2(c3ccc(OC(F)(F)F)cc3)CC2)cc1
